Measured values published in US11780852B2, “Methods for treating Crohn's disease using 3-((1R,3s,5S)-3-((7-((5-methyl-1H-pyrazol-3-yl)amino)-1,6-naphthyridin-5-yl)amino)-8-azabicyclo[3.2.1]octan-8-yl)propanenitrile” (priority 2015, dated 2023).

Sequences of proteins named here, by UniProt entry; tags and fusion partners are left off. A change or cut given only in a name is not applied to a line headed by its entry.
UniProt P52333: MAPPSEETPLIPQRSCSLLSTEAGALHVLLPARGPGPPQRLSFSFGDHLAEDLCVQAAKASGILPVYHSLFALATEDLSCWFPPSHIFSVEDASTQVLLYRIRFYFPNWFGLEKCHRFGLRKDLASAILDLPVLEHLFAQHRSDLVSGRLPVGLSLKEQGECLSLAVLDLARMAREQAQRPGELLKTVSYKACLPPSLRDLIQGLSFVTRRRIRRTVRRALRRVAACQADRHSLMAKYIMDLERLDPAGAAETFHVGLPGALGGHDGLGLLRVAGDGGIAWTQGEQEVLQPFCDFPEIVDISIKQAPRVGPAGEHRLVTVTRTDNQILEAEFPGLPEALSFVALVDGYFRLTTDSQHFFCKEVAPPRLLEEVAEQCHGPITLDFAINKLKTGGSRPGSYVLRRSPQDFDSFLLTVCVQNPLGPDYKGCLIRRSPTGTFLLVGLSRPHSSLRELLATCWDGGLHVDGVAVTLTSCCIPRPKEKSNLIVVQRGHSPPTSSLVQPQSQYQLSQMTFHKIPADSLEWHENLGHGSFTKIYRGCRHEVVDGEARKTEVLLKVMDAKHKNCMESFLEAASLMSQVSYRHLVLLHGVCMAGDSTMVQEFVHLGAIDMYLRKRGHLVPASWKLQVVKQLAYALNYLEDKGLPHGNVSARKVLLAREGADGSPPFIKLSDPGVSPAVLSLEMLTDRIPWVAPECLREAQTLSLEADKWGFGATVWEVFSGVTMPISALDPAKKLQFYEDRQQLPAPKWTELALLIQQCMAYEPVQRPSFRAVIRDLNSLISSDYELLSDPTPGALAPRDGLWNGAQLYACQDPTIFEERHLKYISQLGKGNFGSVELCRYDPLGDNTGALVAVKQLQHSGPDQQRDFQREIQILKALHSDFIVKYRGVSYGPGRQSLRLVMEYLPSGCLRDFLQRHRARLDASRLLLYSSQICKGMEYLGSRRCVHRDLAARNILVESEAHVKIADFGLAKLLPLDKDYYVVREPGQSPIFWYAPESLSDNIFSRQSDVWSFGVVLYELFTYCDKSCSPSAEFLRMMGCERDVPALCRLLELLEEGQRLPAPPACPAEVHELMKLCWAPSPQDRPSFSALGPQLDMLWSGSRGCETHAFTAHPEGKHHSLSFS

Target: JAK3 (Homo sapiens (Human), UniProt P52333)
Assay type: biochemical
Protocol: Assay 1: Biochemical JAK and Off-Target Kinase Assays
A panel of four LanthaScreen JAK biochemical assays (JAK1, 2, 3 and Tyk2) were carried in a common kinase reaction buffer (50 mM HEPES, pH 7.5, 0.01% Brij-35, 10 mM MgCl2, and 1 mM EGTA). Recombinant GST-tagged JAK enzymes and a GFP-tagged STAT1 peptide substrate were obtained from Life Technologies.
Serially diluted compounds were pre-incubated with each of the four JAK enzymes and the substrate in white 384-well microplates (Corning) at ambient temperature for 1 h. ATP was subsequently added to initiate the kinase reactions in 10 μL total volume, with 1% DMSO. […] Kinase reactions were allowed to proceed for 1 hour at ambient temperature before a 10 μL preparation of EDTA (10 mM final concentration) and Tb-anti-pSTAT1 (pTyr701) antibody (Life Technologies, 2 nM final concentration) in TR-FRET dilution buffer (Life Technologies) was added. The plates were allowed to incubate at ambient temperature for 1 h before being read on the EnVision reader (Perkin Elmer).
Results were expressed as pIC50 (negative logarithm of IC50) and subsequently converted to pKi (negative logarithm of dissociation constant, Ki) using the Cheng-Prusoff equation.

Cc1cc(Nc2cc3ncccc3c(N[C@@H]3C[C@H]4CC[C@@H](C3)N4C3CCOC3=O)n2)n[nH]1 (stereo partly shown) [Example 1-26]
JAK 3 (pKi): C (C represents a pKi value between 7 and 9 (Ki between 100 nM and 1 nM))
